Results published in ChEMBL document CHEMBL5705888, “Substrate specificity and inhibitors of LRRK2, a protein kinase mutated in Parkinson's disease” (Biochem J, 2009).

Protein sequences, listed by entry. Tags and fused reporters are not part of them.
Leucine-rich repeat serine/threonine-protein kinase 2 (Homo sapiens), Q5S007, UniProt Q5S007, whole entry G2019S: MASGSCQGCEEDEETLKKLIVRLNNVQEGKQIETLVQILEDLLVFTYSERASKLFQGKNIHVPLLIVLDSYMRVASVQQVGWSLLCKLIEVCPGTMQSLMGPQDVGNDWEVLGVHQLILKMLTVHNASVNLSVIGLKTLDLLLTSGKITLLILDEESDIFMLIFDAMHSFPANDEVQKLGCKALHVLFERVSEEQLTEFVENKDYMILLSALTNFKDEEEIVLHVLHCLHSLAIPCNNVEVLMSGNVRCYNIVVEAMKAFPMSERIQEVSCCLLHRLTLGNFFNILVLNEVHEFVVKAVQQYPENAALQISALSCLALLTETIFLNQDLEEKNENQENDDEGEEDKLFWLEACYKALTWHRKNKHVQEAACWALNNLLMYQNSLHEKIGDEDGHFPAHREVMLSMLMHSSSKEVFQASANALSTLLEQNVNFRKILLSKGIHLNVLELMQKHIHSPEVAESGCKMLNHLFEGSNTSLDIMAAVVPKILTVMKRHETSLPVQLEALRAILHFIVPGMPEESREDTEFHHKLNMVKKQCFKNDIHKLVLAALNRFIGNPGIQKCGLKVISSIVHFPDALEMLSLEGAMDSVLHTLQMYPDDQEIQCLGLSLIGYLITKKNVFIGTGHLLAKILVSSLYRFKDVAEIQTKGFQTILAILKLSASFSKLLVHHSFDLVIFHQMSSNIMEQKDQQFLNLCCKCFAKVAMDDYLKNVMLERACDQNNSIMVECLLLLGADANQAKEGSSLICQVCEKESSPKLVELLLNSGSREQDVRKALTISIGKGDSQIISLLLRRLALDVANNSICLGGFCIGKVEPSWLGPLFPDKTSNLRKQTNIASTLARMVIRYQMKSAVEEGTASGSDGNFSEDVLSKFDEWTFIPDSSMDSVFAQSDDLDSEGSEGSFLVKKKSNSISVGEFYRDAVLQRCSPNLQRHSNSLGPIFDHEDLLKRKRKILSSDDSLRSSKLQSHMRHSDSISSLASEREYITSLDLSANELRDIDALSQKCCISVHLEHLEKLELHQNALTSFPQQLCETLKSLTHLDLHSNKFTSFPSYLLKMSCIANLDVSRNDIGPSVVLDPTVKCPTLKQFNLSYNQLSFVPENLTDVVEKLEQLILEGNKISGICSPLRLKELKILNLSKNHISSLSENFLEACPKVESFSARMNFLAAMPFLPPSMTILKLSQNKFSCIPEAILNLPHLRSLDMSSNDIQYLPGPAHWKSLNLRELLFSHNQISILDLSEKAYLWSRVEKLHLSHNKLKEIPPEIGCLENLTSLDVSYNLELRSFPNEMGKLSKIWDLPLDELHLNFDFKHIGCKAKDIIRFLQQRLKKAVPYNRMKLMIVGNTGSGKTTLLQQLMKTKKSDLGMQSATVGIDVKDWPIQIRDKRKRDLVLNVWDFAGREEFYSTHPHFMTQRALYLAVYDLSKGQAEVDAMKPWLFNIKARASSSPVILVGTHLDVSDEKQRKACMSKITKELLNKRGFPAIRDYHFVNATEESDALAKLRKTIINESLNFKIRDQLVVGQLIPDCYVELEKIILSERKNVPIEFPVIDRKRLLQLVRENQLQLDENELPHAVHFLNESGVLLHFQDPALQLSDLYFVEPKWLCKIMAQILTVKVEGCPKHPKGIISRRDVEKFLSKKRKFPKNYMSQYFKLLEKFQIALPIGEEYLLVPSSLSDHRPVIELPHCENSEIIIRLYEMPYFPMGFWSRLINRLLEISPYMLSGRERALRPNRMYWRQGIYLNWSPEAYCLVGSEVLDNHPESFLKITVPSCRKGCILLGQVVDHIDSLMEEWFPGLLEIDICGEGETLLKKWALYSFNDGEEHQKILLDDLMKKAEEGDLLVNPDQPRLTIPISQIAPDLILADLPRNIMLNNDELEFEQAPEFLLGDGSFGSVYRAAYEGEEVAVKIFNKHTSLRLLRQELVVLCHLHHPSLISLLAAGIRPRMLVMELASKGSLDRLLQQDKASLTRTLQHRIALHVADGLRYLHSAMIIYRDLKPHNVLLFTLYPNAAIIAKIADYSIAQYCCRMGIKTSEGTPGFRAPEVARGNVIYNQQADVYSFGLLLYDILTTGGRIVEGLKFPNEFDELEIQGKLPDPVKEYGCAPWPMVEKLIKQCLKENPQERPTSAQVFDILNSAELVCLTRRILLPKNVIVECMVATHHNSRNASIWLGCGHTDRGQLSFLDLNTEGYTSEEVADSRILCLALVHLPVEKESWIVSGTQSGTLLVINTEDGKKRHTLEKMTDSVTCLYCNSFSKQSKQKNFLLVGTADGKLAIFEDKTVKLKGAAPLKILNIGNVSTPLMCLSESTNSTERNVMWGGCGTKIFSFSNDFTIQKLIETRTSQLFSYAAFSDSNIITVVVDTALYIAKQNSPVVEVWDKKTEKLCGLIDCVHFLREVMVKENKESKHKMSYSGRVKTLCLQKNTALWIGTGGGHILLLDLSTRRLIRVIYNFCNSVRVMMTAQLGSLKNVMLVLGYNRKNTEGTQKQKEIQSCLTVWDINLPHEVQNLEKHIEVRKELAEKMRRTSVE

System: Leucine-rich repeat serine/threonine-protein kinase 2 (Homo sapiens), Q5S007 [G2019S]
Assay: Inhibition of LRRK2 G2019S mutant (unknown origin) at 1 uM incubated for 30 mins in presence of [gamma-33P]ATP by multidrop micro reagent based assay relative to control; values are per cent of control

With CCN(CC)CCNC(=O)c1c(C)[nH]c(/C=C2\C(=O)Nc3ccc(F)cc32)c1C the residual activity was 3%.
